# Reference: US7495127B2, “Potassium channel opener” (Mitsubishi Tanabe Pharma Corporation, priority 2001, dated 2009)
# Amino acid sequences for entries named in this document (tags omitted). A change or cut given only in a name is not applied to a line headed by its entry.
# UniProt Q62976: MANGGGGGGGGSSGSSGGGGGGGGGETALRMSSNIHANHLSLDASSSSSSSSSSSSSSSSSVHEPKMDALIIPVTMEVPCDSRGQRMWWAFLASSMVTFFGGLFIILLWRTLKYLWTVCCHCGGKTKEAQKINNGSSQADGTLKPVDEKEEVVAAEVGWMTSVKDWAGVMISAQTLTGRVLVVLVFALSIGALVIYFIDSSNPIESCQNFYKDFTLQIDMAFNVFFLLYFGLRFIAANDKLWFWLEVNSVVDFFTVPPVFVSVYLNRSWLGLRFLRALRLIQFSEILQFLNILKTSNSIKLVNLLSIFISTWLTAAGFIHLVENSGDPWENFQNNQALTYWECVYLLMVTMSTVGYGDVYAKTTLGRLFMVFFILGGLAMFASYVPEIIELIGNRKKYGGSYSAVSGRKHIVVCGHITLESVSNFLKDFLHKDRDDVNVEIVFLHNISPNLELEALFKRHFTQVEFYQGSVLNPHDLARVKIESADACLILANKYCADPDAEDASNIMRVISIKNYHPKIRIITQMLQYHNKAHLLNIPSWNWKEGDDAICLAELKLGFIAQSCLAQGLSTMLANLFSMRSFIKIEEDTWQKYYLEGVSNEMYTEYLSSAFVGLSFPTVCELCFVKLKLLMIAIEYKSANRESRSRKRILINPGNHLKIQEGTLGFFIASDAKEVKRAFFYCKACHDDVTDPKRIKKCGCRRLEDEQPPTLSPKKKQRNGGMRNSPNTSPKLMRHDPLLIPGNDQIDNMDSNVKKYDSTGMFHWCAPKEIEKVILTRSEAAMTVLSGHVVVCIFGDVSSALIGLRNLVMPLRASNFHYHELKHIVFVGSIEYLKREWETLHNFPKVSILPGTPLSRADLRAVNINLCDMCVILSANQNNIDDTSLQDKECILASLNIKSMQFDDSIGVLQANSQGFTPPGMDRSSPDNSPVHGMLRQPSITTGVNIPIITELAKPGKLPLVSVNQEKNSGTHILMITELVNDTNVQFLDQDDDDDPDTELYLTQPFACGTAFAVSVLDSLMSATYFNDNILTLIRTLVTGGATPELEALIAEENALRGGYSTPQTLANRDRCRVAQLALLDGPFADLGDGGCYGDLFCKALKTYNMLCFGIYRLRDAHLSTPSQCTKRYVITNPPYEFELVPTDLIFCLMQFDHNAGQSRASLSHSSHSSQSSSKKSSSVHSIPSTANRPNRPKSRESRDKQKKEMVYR
# Like-named read-outs stand apart in the source and are kept apart here.
# Target: T1, BKαβ1 (Rattus norvegicus, UniProt Q62976)
# T1 construct: expressed in transfected cells; host or cells: HEK293
# Assay: Concentration-dependent block of macroscopic currents by ChTX in HEKBKαβ1, in the absence and presence of pimaric acid
# Assay type: cell-based
# Conditions: for Kd: read-out: Kd (apparent dissociation constant of ChTX); for IC50: read-out: half-maximum concentration of ChTX for the block of BK channel current
# Description: To determine whether pimaric acid changes the binding of charybdotoxin (ChTX) to BK channels, the concentration-dependent block of macroscopic currents by ChTX was measured in HEKBKαβ1, in the absence and presence of 10 μm pimaric acid. The outward currents elicited by depolarization from −60 mV in 10 mV steps were enhanced at potentials positive to −20 mV. The current at +40 mV was increased from 1214±153 to 2527±448 pA (n=5, p<0.05). […] The remaining components in the presence of 100 nM ChTX include native delayed rectifier K^+ currents and unblocked BKαβ1. The currents at +40 mV in the presence of 10 μm pimaric acid was reduced from 2527±448 pA to 499±90 pA (p<0.01 versus before the application of and in the presence of 10 μm pimaric acid). Cumulative addition of ChTX in the range of 3 to 100 nM reduced outward current in a concentration dependent manner. A concentration-response relationship for ChTX-induced block was also obtained in the absence of pimaric acid; the current amplitude at +40 mV was reduced from 1233±226 to 205±46 pA by addition of 100 nM ChTX (n=5, p<0.01). The normalized data were well fitted with the Hill equation modified for the concentration-response relationship. Iblock=(1−C)/{1+(Kd/[ChTX])^nH}, where Kd is the apparent dissociation constant of ChTX, [ChTX] is the concentration of ChTX, nH is the Hill coefficient, and C is the constant. […] The C values which may correspond to the native K^+ currents insensitive to ChTX, were 0.077±0.0226 and 0.0965±0.0388 (p>0.05), respectively. The relationship in the presence of 10 μm pimaric acid was almost identical with that in its absence. The half-maximum concentrations of ChTX for the block of BK channel current were almost identical each other in the absence and presence of pimaric acid (7.66 and 6.72 nM).
substance,measurement,setting,value
charybdotoxin [ChTX],Kd,absence of pimaric acid,7.66 ± 2.66 nM
same,Kd,presence of 10 μm pimaric acid,6.72 ± 2.26 nM
same,IC50,absence of pimaric acid,7.66 nM
same,IC50,presence of pimaric acid,6.72 nM
